This assay has as its system cell lines with non-malignant phenotypes (epithelial MCF 10A, renal RPTEC/TERT1 and hepatocyte NeHepLxHT). Nature of the assay: FMCA concentration-response, non-malignant cell lines. Format: cell-based. The conditions noted are these: 72 h FMCA. As to the method:
The colon cancer cell lines HT29, HT-8 and SW626 and the normal phenotype non-malignant epithelial MCF 10A, renal RPTEC/TERT1 and hepatocyte NeHepLxHT cell lines were used for validation experiments. These cell lines were all obtained from ATCC and cultured according to the protocols provided by the supplier. All the cell lines were cultured at 37 °C in a humidified atmosphere containing 5 % CO2.
For dose–response studies, Labcyte source plates and the Echo dispenser were used in a similar manner to deliver different concentrations of each drug to destination plates using on board software protocols (Labcyte).
The fluorometric microculture cytotoxicity assay (FMCA), described in detail previously (Lindhagen et al. [2008]), was used for measurement of the cytotoxic effect of library compounds and the established standard drugs. The FMCA is based on measurement of fluorescence generated from hydrolysis of fluorescein diacetate (FDA) to fluorescein by cells with intact plasma membranes. […] Results are expressed as survival index (SI), defined as fluorescence of experimental wells in per cent of unexposed control wells with blank values subtracted.
Concentration–response data of screening hits and standard agents were analyzed using the software GraphPad Prism4 (GraphPad Software Inc., San Diego, CA, USA). […]

With `COC(=O)Nc1nc2ccc(C(=O)c3ccccc3)cc2[nH]1` [mebendazole], the “activity in non-malignant cell line models” value is “largely inactive”.

Values taken from paper PMC3825534 (Journal of Cancer Research and Clinical Oncology, 2013).
